{"source": "patent EP1536230A1", "about": "“Flow cytometric, particle-based binding assay” (Deutsches Rheuma-Forschungszentrum Berlin, priority 2003, dated 2005)", "key": {"[1]": {"biological_target": "T1, CaN-VIVIT Bindung (Homo sapiens, UniProt Q08209)", "T1 construct": "made in house; host or cells: E. coli", "assay": "Flow cytometric binding assay: competition / blocking of the CaN-VIVIT binding", "design": "species or system menschliches", "experimental": "(§1) Zu rekombinantem menschlichen FITC-CaN (25 nM), das in Assaypuffer mit 0,05% BSA mit biotinyliertem VIVIT-Peptid (300 nM) bzw. NFAT-B Peptid (4 µM) für 10 min lichtgeschützt auf Eis inkubierte, wurden 50000 beads in 10 µl Asaypuffer pipettiert. Nach weiteren 10 min Inkubation wurde das Reaktionsgemisch (110 µl) im Durchflusszytometer \"FacsCalibur\" (BD Biosciences) gemessen. Bei der Testung von Substanzen auf ihre Fähigkeit, die CaN-VIVIT Bindung zu blockieren, wurde ein zusätzlicher Inkubationsschritt dem o.g. Assay vorgeschaltet. Dafür wurde 1 µl Inhibitor (in DMSO) zu FITC-CaN in Assaypuffer (94 µl) pipettiert und anschließend für 30 min lichtgeschützt auf Eis belassen. Die Auswertung der Meßdaten erfolgte mit der Software CellQuest (BD Biosciences).\nDurch spezifische Konkurrenz (Kompetierung) von zugegebenen Verbindungen mit Komponenten eines Assays lassen sich ebenfalls Aussagen über die Spezifität von Bindungen treffen.\nZur Testung von verschiedenen niedermolekularen immunsuppressiven Substanzen auf ihre Fähigkeit, die CaN-VIVIT Bindung zu blockieren, wurde ein zusätzlicher Inkubationsschritt von FITC-CaN mit der entsprechenden Verbindung vorgeschaltet. Als negative Kontrolle wurde der immunsuppressive Komplex CsA/Cyclophilin18 (Cyp) getestet, der bekanntermaßen die Calcineurinaktivität nicht aber die CaN-NFAT Bindung hemmt. […]"}, "[2]": {"biological_target": "T2, Rekombinantes menschliches CaN (Homo sapiens, UniProt Q08209)", "T2 construct": "made in house; host or cells: E. coli", "assay": "Flow cytometric, particle-based binding assay: FITC-CaN bound via biotinylated peptide to streptavidin beads", "details": "FITC-CaN (25 nM), biot-VIVIT-Peptid (300 nM), Streptavidin-Beads (50000), versus control without peptide", "experimental": "Der Assaypuffer war wie folgt zusammengesetzt: 25mM Tris/HCl, 3mM MgCl2, 1mM EGTA, 0,5mM DTT oder TCEP, pH 7,4. Wenn nicht anders angegeben, wurde der Assaypuffer noch mit 0,05% BSA (PAA laboratories) versetzt.\nRekombinantes menschliches CaN wurde in Boratpuffer aufgenommen und mit FITC (Sigma) in einem molaren Verhältnis von 1:12 für 1h auf Eis und vor Licht geschützt inkubiert. Das ungebundenen FITC wurde dann über eine PD10 Säule (Amersham-Pharmacia) abgetrennt.\nas §1"}, "[3]": {"biological_target": "T3, FITC-Ovalbumin (Gallus gallus, UniProt P01012)", "T3 construct": "purchased Sigma", "T3 sequence (P01012 1-386)": "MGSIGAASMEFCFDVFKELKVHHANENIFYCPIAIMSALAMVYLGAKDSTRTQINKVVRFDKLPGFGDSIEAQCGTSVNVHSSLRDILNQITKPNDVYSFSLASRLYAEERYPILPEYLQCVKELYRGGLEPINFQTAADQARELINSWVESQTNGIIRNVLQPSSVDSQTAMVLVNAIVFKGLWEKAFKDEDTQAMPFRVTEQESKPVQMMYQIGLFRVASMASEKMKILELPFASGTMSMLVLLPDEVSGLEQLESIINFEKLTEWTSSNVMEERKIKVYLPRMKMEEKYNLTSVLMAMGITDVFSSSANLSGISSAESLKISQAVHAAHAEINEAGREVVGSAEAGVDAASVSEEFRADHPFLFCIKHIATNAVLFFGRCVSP", "assay": "Flow cytometric, particle-based binding assay with control protein FITC-Ovalbumin (specificity)", "details": "FITC-Ovalbumin (25 nM), biot-VIVIT-Peptid (300 nM)"}}, "note": "Entries after “also recorded” stand apart in the source; their conditions may differ.", "data": [{"substance": "GMAGPHPVIVITGPHEE", "values": [{"measurement": "beadassoziierte spezifische Bindung von FITC-CaN über biot-VIVIT (Kompetierung)", "setting": "[1]; 50 facher Überschuß of nichtbiotinyliertem VIVIT", "result": "nicht mehr nachweisbar"}, {"measurement": "beadassoziiertes FITC-CaN (Kompetierung)", "setting": "[1]; nichtbiotinyliertes VIVIT (1500 nM) displaces biotinylated VIVIT", "result": "kein beadassoziiertes FITC-CaN mehr nachweisbar"}]}, {"substance": "biotinyl-GMAGPHPVIVITGPHEE (N-terminal biotin) [biot-VIVIT]", "values": [{"measurement": "mittlere Fluoreszenzintensität (Bindung von FITC-CaN über biotinyliertes Peptid an Beads)", "setting": "[2]; listed as VIVIT-Peptid", "result": "erhöhte Fluoreszenzintensität"}, {"measurement": "mittlere Fluoreszenzintensität (Bindung von FITC-CaN über biotinyliertes Peptid an Beads)", "setting": "[2]; listed as biot-VIVIT-Peptid", "result": "höhere mittlere Fluoreszenzintensität; also recorded: bindet spezifisch; also recorded: erhöhte Fluoreszenzintensität"}, {"measurement": "mittlere Fluoreszenzintensität (Bindung von FITC-CaN über biotinyliertes Peptid an Beads)", "setting": "[2]; listed as biotinyliertem VIVIT-Peptid", "result": "erhöhte Fluoreszenzintensität"}, {"measurement": "Fluoreszenzintensität (Bindung des Kontrollproteins FITC-Ovalbumin)", "setting": "[3]; listed as VIVIT-Peptid", "result": "keine erhöhte Fluoreszenzintensität"}, {"measurement": "Fluoreszenzintensität (Bindung des Kontrollproteins FITC-Ovalbumin)", "setting": "[3]; listed as biot-VIVIT-Peptid", "result": "aber nicht"}]}]}
